Test results as given in patent US20230302150A1, “ANTIBODY-TLR AGONIST CONJUGATES, METHODS AND USES THEREOF” (Ambrx, Inc., priority 2020, published 2023).

Protein sequences, listed by entry. Tags and fused reporters are not part of them. Residues count along the entry.
UniProt Q9NYK1, 27-1049 limits assumed: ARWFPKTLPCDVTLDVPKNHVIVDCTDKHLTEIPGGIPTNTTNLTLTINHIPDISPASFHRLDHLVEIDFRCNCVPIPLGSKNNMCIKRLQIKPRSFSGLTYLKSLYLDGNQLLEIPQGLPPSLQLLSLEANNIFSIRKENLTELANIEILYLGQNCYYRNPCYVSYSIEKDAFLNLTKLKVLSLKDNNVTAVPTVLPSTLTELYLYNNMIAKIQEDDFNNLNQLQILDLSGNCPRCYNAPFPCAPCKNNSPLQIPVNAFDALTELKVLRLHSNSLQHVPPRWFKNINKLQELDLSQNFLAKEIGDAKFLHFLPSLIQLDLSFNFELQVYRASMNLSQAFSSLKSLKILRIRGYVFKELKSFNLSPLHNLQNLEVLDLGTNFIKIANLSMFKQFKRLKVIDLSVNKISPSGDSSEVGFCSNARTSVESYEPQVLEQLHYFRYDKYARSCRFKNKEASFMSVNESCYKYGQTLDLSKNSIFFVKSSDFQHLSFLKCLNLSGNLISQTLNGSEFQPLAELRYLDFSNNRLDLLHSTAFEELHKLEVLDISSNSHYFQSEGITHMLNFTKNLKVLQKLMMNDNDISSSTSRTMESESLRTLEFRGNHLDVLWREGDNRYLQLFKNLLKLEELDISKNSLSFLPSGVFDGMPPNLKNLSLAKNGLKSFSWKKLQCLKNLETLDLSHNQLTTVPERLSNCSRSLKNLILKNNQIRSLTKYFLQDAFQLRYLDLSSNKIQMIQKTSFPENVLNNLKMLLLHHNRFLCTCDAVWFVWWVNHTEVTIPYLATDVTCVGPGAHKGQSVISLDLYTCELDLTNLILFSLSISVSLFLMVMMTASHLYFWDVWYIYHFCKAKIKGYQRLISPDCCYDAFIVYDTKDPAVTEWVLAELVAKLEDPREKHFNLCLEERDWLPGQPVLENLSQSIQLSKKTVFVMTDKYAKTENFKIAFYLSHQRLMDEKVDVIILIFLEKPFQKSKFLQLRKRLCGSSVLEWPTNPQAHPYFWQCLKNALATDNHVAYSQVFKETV

Target: hTLR7 (Homo sapiens, UniProt Q9NYK1)
Experiment: HEK-Blue hTLR7 reporter assay (NF-kB-induced SEAP, Quanti-Blue)
Type: cell-based
Settings: Table 19, TLR7, drug-linkers with PEG shielding

Structure (SMILES): CCCCOc1nc(N)c2[nH]c(=O)n(Cc3ccc(CN4CCC(CCNC(=O)[C@H](CCCCNC(=O)CON)NC(=O)CCOCCOCCOCCOC)CC4)cc3)c2n1
- EC50: 303 nM
